{"source": "ChEMBL document CHEMBL2385064", "about": "“Selective CB2 agonists with anti-pruritic activity: discovery of potent and orally available bicyclic 2-pyridones” (Bioorg Med Chem, 2013)", "organism": "Homo sapiens", "test": "Selectivity ratio of Ki for human CB1 receptor to Ki for human CB2 receptor", "data": [{"smiles": "COCCn1c2c(cc(C(=O)NCc3ccccc3)c1=O)CCCCCC2", "values": [{"measurement": "Ratio Ki", "value": 221}]}]}
